Test results published in ChEMBL document CHEMBL2069172, “Transition state analogue inhibitors of human methylthioadenosine phosphorylase and bacterial methylthioadenosine/S-adenosylhomocysteine nucleosidase incorporating acyclic ribooxacarbenium ion mimics” (Bioorg Med Chem, 2012).

Assay: Inhibition of Escherichia coli MTAN assessed as reduction in methylthioadenosine phosphorolysis/hydrolysis

CSC[C@H]1CN(Cc2c[nH]c3c(N)ncnc23)C[C@@H]1O
Ki: 2 pM
